According to US20250312469A1 (CANGET BIOTEKPHARMA, priority 2024, published 2025):

Assays:
[1] = Group 4, 4/4 mg/kg/dose; for MCH % Diff / GLB (globulin), % Diff versus vehicle Group 1: female dogs; for GLB (globulin) % Diff vs Group 1: male dogs

For `CCC1(O)C(=O)OCc2c1cc1n(c2=O)Cc2cc3cc4c(cc3nc2-1)OCO4` (stereo not drawn) [FL118], the “MCH % Diff” value ([1]; Day −4) was 0.1%, the “GLB (globulin), % Diff versus vehicle Group 1” value ([1]; Day 15) was 9.3% and the “MCH % Diff” value ([1]; Day 15) was −1.8%. The “GLB (globulin), % Diff versus vehicle Group 1” value ([1]; Day −4 (pre-dose)) was 9.0%, the “GLB (globulin) % Diff vs Group 1” value ([1]; Day 15) was −24.1% and the “GLB (globulin) % Diff vs Group 1” value ([1]; Day −4) was −12.4%. The Caco-2 cell permeability (Caco-2 cells (P-gp); 1 μM, +/−1 μM valspodar) was “not affected by the Pgp inhibitor Valspodar”, the “Absorption Potential Classification” value (Caco-2 cells (P-gp); Caco-2) was “High (Papp (A-to-B)≥1.0×10^−6 cm/s: High)” and the “P-gp Substrate Classification” value (Caco-2 cells (P-gp); Caco-2, without and with 1 μM valspodar) was “Negative (ER≥2.0 without valspodar, and reduced by <50% with valspodar: Negative)”.

Where two headings read alike, the source gives them in different places.
